{"sequences": {"note": "Protein sequences, listed by entry. Tags and fused reporters are not part of them. Lines headed by an entry give the natural chain unless they say otherwise; changes in a name come on top.", "UniProt O75030": "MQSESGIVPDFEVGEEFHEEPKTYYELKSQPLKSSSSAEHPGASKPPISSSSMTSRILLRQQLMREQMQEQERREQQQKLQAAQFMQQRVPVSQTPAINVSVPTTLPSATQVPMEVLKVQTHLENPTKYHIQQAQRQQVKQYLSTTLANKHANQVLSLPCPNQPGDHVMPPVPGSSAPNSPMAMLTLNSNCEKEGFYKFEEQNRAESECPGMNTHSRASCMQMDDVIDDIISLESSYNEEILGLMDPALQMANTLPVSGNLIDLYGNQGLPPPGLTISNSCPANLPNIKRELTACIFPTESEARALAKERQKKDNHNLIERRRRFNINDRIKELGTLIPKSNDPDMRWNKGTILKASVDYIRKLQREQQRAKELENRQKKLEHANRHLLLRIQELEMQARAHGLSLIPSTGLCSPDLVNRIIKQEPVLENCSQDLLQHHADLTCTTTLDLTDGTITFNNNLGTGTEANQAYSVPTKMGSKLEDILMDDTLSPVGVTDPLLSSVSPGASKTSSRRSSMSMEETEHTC"}, "source": "PubChem BioAssay AID1259374", "about": "(The Scripps Research Institute Molecular Screening Center, 2018)", "note": "The entries are a selection whose mix differs from that of the whole data set. Calls of active or inactive are those of the source. Cut-off read from the data, not from the text of the source: active = inhibition above about 50%; inactive = the rest."}
{"molecular_target": "Microphthalmia-associated transcription factor (Homo sapiens) (UniProt O75030)", "assay": "MITF inhibitors, primary screen, biochemical, AlphaScreen, human (AID 1259374);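 note: 0% = vehicle wells with protein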", "conditions": "AlphaScreen MITF homodimerization, bead proximity signal; at 2.6 µM; stronger effect = higher value"}
{"smiles": "Oc1ccccc1CNc1ccccn1", "inhibition": "inactive: -4.83%"}
{"smiles": "Nc1c([N+](=O)[O-])cc([N+](=O)[O-])c(Nc2cccc(C(=O)O)c2)c1[N+](=O)[O-]", "inhibition": "inactive: 2.04%"}
{"smiles": "Cc1cc(SC(NC(=O)CC(C)C)C(Cl)(Cl)Cl)ncn1", "note": "(stereo not drawn)", "inhibition": "inactive: -11.1%"}
{"smiles": "N=C1N=C(c2ccc([N+](=O)[O-])cc2)CC(C(Cl)(Cl)Cl)S1", "note": "(stereo not drawn)", "inhibition": "inactive: -6.14%"}
{"smiles": "CC(=O)OC=C1c2cc([N+](=O)[O-])cc([N+](=O)[O-])c2-c2c1cc([N+](=O)[O-])cc2[N+](=O)[O-]", "inhibition": "inactive: 0.27%"}
{"smiles": "O=C(Nc1ccc(C(F)(F)F)cc1[N+](=O)[O-])c1cc([N+](=O)[O-])cc([N+](=O)[O-])c1", "inhibition": "inactive: 34.9%"}
{"smiles": "NC(=O)c1cc([N+](=O)[O-])cc([N+](=O)[O-])c1N", "inhibition": "inactive: -1.79%"}
{"smiles": "Cc1ccc(N/C(=N/P(=O)(N2CCOCC2)N2CCOCC2)N2CCOCC2)cc1", "inhibition": "inactive: -8%"}
{"smiles": "Cc1cc(C)nc(SC(NC(=O)C(C)C)C(Cl)(Cl)Cl)n1", "note": "(stereo not drawn)", "inhibition": "inactive: 4.12%"}
{"smiles": "CCOC(=O)N1C2CCC1CC(OC(=O)C(O)(c1ccccc1)c1ccccc1)C2", "note": "(stereo not drawn)", "inhibition": "inactive: -0.44%"}
{"smiles": "COc1ccc(CCN2CCC(N(Cc3ccco3)C(=O)NC(C)C)CC2)cc1", "inhibition": "inactive: -1.42%"}
{"smiles": "CCN(CC)C1=NP(=O)(c2ccccc2)NC(c2ccccc2)=C1C#N", "note": "(stereo not drawn)", "inhibition": "inactive: -1.04%"}
{"smiles": "CCOc1ccc(/C=C2/C(=O)NC(=O)N(Cc3ccco3)C2=O)cc1", "inhibition": "active: 74.1%"}
{"smiles": "CCCCOP(=O)(OCCCC)SC", "inhibition": "inactive: 5.99%"}
{"smiles": "COC(=O)c1ccc(OP2(=S)OCC(C)(C)CO2)cc1", "inhibition": "inactive: -2.68%"}
{"smiles": "CCOP(=O)(OCC)SCC(=O)NCCC(=O)O", "inhibition": "inactive: 1.27%"}
{"smiles": "O=[N+]([O-])c1cc([N+](=O)[O-])c(CCN2CCOCC2)c([N+](=O)[O-])c1", "inhibition": "inactive: 19.8%"}
{"smiles": "CN(C(=O)COC(=O)C(O)(c1ccccc1)c1ccccc1)c1ccccc1", "inhibition": "inactive: -0.46%"}
{"smiles": "O=[N+]([O-])c1ccc(Oc2ccccc2[N+](=O)[O-])c([N+](=O)[O-])c1", "inhibition": "inactive: 11.8%"}
{"smiles": "O=C(Nc1ccccc1[N+](=O)[O-])c1ccc([N+](=O)[O-])cc1[N+](=O)[O-]", "inhibition": "inactive: 11.4%"}
{"smiles": "CCOP(=O)(OCC)C(=O)c1ccccc1Cl", "inhibition": "inactive: 2.77%"}
{"smiles": "COc1ccc(NC2=NCC(CBr)S2)cc1", "note": "(stereo not drawn)", "inhibition": "inactive: -3.06%"}
{"smiles": "O=[N+]([O-])c1cc([N+](=O)[O-])c(OCC(O)C[n+]2ccccc2)c([N+](=O)[O-])c1", "note": "(stereo not drawn)", "inhibition": "inactive: 2.32%"}
{"smiles": "CCOP(=Nc1nc2ccccc2n2nnnc12)(OCC)OCC", "inhibition": "inactive: 1.94%"}
{"smiles": "CC(C)(C)C(=O)NC(Sc1ccncn1)C(Cl)(Cl)Cl", "note": "(stereo not drawn)", "inhibition": "inactive: 3.35%"}
{"smiles": "Cc1c(Nc2ccc([N+](=O)[O-])cc2[N+](=O)[O-])cccc1[N+](=O)[O-]", "inhibition": "inactive: 18%"}
{"smiles": "C/C(=N\\Nc1ccc([N+](=O)[O-])cc1[N+](=O)[O-])c1cccc([N+](=O)[O-])c1", "inhibition": "inactive: -6.16%"}
{"smiles": "CN1C(=O)C2C(NC(=NCCN3CCOCC3)N2C)N(C)C1=O", "note": "(stereo not drawn)", "inhibition": "inactive: 17.1%"}
{"smiles": "C[n+]1c2n(c3ccccc31)CC(Cl)CS2", "note": "(stereo not drawn)", "inhibition": "inactive: 9.09%"}
{"smiles": "O=[N+]([O-])c1cc(/C=N/N=C/c2cc([N+](=O)[O-])cc([N+](=O)[O-])c2O)c(O)c([N+](=O)[O-])c1", "inhibition": "inactive: 19.4%"}
{"smiles": "O=C(c1ccc2c(c1)OCO2)N(Cc1ccco1)C1CCN(CCc2ccccn2)CC1", "inhibition": "inactive: 1.08%"}
{"smiles": "CCOP(=O)(Nc1ccc(Br)cc1)OCC", "inhibition": "inactive: 0.19%"}
{"smiles": "CCCCOP(=O)(OCCCC)N(CC)CC", "inhibition": "inactive: -13.9%"}
{"smiles": "O=[N+]([O-])c1cc([N+](=O)[O-])c2nc(-c3ccc([N+](=O)[O-])o3)[nH]c2c1", "inhibition": "inactive: 10.9%"}
{"smiles": "O=C(COC(=O)C(O)(c1ccccc1)c1ccccc1)NCc1ccc2c(c1)OCO2", "inhibition": "inactive: -5.36%"}
{"smiles": "CCOP(=O)(NNc1ccccc1)OCC", "inhibition": "inactive: 0.74%"}
{"smiles": "ClCCN1CCn2c1nc1ccccc12", "inhibition": "inactive: -0.94%"}
{"smiles": "Cn1c(SCC(=O)c2ccccc2OC(F)F)nc2ccccc21", "inhibition": "inactive: -4.28%"}
{"smiles": "CC(C)NC(=O)N(Cc1ccco1)C1CCN(CCc2ccccn2)CC1", "inhibition": "inactive: -1.74%"}
{"smiles": "Cc1cc(NP2(=O)C=C(c3ccccc3)OC(c3ccccc3)=C2)n[nH]1", "inhibition": "inactive: 5.01%"}
{"smiles": "O=[N+]([O-])c1cc([N+](=O)[O-])c(SCCNc2ccccc2)c([N+](=O)[O-])c1", "inhibition": "inactive: 15%"}
{"smiles": "CCOP(=S)(OCC)c1cccc(C(=O)O)c1", "inhibition": "inactive: -10.2%"}
{"smiles": "CCOc1ccc(NC(=O)c2cc([N+](=O)[O-])cc([N+](=O)[O-])c2)c([N+](=O)[O-])c1", "inhibition": "inactive: 17.8%"}
{"smiles": "CCN/N=C/c1c([N+](=O)[O-])cc([N+](=O)[O-])cc1[N+](=O)[O-]", "inhibition": "inactive: 18.1%"}
{"smiles": "ClC(Cl)(Cl)C1=NP2(=NC(c3ccccc3)=N1)OCCCO2", "inhibition": "inactive: 14.4%"}
{"smiles": "CC(=O)N(Cc1ccco1)C1CCN(CCc2cccs2)CC1", "inhibition": "inactive: -3.14%"}
{"smiles": "Nc1c([N+](=O)[O-])cc(C(=O)c2cc([N+](=O)[O-])c(N)c([N+](=O)[O-])c2)cc1[N+](=O)[O-]", "inhibition": "inactive: -4.93%"}
{"smiles": "CCCCOP1(=S)N=C2c3ccccc3CN2c2cc(N(C)C)ccc21", "note": "(stereo not drawn)", "inhibition": "inactive: 6.29%"}
{"smiles": "O=P(Nc1ccccn1)(OCC(F)(F)F)Oc1ccccc1", "note": "(stereo not drawn)", "inhibition": "inactive: 8.75%"}
{"smiles": "O=C(CCNCCCl)c1ccccc1", "inhibition": "inactive: 11.5%"}
{"smiles": "O=C(OC1CN2CCC1CC2)C1COc2ccccc2O1", "note": "(stereo not drawn)", "inhibition": "inactive: 17.7%"}
{"smiles": "COP(=O)(NS(=O)(=O)c1ccc(Cl)cc1)OC", "inhibition": "inactive: -1.17%"}
{"smiles": "Cc1cc(NP2(=O)C=C(c3ccccc3)SC(c3ccccc3)=C2)n[nH]1", "inhibition": "inactive: 15%"}
{"smiles": "Cc1nc(Nc2cccc([N+](=O)[O-])c2)nc(Nc2cccc([N+](=O)[O-])c2)c1[N+](=O)[O-]", "inhibition": "inactive: 12.6%"}
{"smiles": "O=C(N/N=C/c1ccc([N+](=O)[O-])cc1)c1cc([N+](=O)[O-])cc([N+](=O)[O-])c1", "inhibition": "inactive: -2.1%"}
{"smiles": "Cc1cc(C)nc(NNc2c([N+](=O)[O-])cc([N+](=O)[O-])c(C)c2[N+](=O)[O-])n1", "inhibition": "inactive: 1.74%"}
{"smiles": "Cc1ccc(S(=O)(=O)N2C(=O)CSC2C(Cl)(Cl)Cl)cc1", "note": "(stereo not drawn)", "inhibition": "inactive: 11.9%"}
{"smiles": "CCOP(=O)(Nc1cccc(C(F)(F)F)c1)OCC", "inhibition": "inactive: 1.01%"}
{"smiles": "O=C(OC1CN2CCC1CC2)c1cccc(F)c1", "note": "(stereo not drawn)", "inhibition": "inactive: -4.58%"}
{"smiles": "O=C(COC(=O)C(O)(c1ccccc1)c1ccccc1)NCc1cccs1", "inhibition": "inactive: 5.06%"}
{"smiles": "O=P(/N=C(/N1CCOCC1)C(Cl)(Cl)Cl)(N1CCOCC1)N1CCOCC1", "inhibition": "inactive: -115%"}
{"smiles": "N=C(N)SCC(Br)CN1C(=O)c2ccccc2C1=O", "note": "(stereo not drawn)", "inhibition": "inactive: -2.31%"}
{"smiles": "CC(C)OC(=O)NC(SC#N)C(Cl)(Cl)Cl", "note": "(stereo not drawn)", "inhibition": "inactive: 21.5%"}
{"smiles": "Cc1cccc(NC2=NCC(CBr)S2)c1", "note": "(stereo not drawn)", "inhibition": "inactive: 21.7%"}
{"smiles": "Cc1c([N+](=O)[O-])cc(C(=O)Nc2ccc([N+](=O)[O-])cc2)cc1[N+](=O)[O-]", "inhibition": "inactive: -1.56%"}
{"smiles": "Cc1c([N+](=O)[O-])c([N+](=O)[O-])nn1CC(=O)Nc1cc(O)cc([N+](=O)[O-])c1", "inhibition": "inactive: 8.4%"}
{"smiles": "CCOC(=O)c1ccccc1OP(=O)(OCC)SCC(C)C", "note": "(stereo not drawn)", "inhibition": "inactive: -2.84%"}
{"smiles": "CCc1nc2c(n1)c1c(non1O)c1c2no[n+]1[O-]", "inhibition": "inactive: 7.63%"}
